# The list shows a part of the results. Calls of active or inactive are those of the source.
# Tested on: KV channel
# Assay: PubChem AID 652083
# Details: CEREP radioligand binding panel, % inhibition at 10 uM, stronger effect = higher value
smiles,measurement,value
COC(=O)c1cc(Br)cnc1N1CCC(NC2CCCCC2)C(O)C1 (stereo unspecified),inhibition of specific binding,inactive: -15%

# — PubChem BioAssay AID652083 (The Scripps Research Institute Molecular Screening Center, 2013)
